The chains behind the UniProt entries cited, without tags or fusion partners.
UniProt P51450, whole entry: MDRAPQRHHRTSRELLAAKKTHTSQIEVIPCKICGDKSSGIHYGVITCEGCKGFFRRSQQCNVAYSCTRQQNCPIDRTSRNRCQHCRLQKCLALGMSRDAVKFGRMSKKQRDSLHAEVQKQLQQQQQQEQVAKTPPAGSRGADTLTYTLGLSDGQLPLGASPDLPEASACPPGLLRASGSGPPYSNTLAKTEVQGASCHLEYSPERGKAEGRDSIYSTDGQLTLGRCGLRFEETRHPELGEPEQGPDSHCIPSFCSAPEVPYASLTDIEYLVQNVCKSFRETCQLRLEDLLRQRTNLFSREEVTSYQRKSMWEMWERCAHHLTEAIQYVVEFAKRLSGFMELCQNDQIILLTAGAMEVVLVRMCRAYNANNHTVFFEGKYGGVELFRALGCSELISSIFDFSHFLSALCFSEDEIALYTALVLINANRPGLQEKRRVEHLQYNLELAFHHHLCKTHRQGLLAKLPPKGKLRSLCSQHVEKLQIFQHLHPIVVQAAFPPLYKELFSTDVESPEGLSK

The entries are a selection whose mix differs from that of the whole data set. Inconclusive results are not listed. Calls of active or inactive are those of the source. Calls come from the whole dose curve; as a rule, active = well fitted inhibition curve with a large enough effect; inconclusive = small, poorly fitted or top-dose-only effect, or effect the other way; inactive = no such curve, though single readings can be large or run the other way.
Each compound was assayed against Nuclear receptor ROR-gamma (Mus musculus) (UniProt P51450) (assay: qHTS for inhibitors of ROR gamma transcriptional activity). Settings: Drosophila S2 Gal4-RORgamma UAS-luciferase reporter, 20 h; at 53.6 µM (top of the series).
In the case of `CC(C)(C)C(=O)NC(Sc1ccccc1)C(Cl)(Cl)Cl` (configuration not stated), the activity change, negative = inhibition is reported as inactive: -2.1%. In the case of `CN(N=O)C(=N)N[N+](=O)[O-]`, the activity change, negative = inhibition is reported as inactive: -24.3%.

Source: PubChem BioAssay AID2551 (National Center for Advancing Translational Sciences (NCATS), 2010)
% is set by controls: 0 for no effect and ±100 for the full control effect.
Note: nearly all actives have a fitted effect of over 60% in size.
